The entries are a selection whose mix differs from that of the whole data set. Active and inactive are the calls of the source.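 Rule for the calls: active = more than half of replicate wells score below -50%, meaning over 50% inhibition versus plate controls; inconclusive = some replicates but at most half score below -50%; inactive = no replicate scores below -50%.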

The chains behind the UniProt entries cited, without tags or fusion partners.
UniProt P49841, whole entry: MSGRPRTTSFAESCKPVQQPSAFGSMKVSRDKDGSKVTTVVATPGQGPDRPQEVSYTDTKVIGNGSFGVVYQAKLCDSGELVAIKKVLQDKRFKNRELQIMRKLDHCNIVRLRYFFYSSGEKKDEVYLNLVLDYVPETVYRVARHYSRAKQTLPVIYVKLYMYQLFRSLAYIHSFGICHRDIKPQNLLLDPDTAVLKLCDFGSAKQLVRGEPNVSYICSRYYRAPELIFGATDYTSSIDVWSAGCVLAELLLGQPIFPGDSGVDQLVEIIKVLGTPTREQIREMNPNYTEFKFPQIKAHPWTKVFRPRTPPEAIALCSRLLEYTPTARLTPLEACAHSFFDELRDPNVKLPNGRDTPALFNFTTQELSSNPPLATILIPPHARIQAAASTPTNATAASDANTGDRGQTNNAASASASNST

This assay addresses Glycogen synthase kinase-3 beta (Homo sapiens) (UniProt P49841). The assay can be described thus: blockers of GSK3B enzyme activity – biochemical, cell-free homogeneous, HTS, primary screen (AID 2097).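 Note: 0% = median DMSO wells and -100% = median GW8510 positive control wells.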 The conditions noted are these: GST-GSK3beta kinase, ADP-Glo luminescence, 60 min; at 10 µM; stronger effect = lower value. For orientation: In ADP-Glo the light output rises with the ADP produced.
Turning to `CN1CCC(Nc2ccc(F)c(Cl)c2)CC1`, the activity score (negative = inhibition) was inactive: 0.487%.
Take `CCOc1ncccc1C(=O)NCC1(N2CCOCC2)CCCCC1`: the activity score (negative = inhibition) was inactive: -1.28%.
`CCCOc1ccc(C(=O)NCC2(N(C)C)CCCCC2)cc1`: the activity score (negative = inhibition) was inactive: 1.88%.
Turning to `O=C(O)C1(Nc2ccccc2)CCN(Cc2ccccc2)CC1`, the activity score (negative = inhibition) was inactive: -1.48%.
As for `CC(C)(C)OC(=O)N1CCC(Nc2ccccc2)CC1`, the figure is inactive: -1.11%; as for `CCC(CO)(C(=O)OC1CN2CCC1CC2)c1ccccc1` (stereo not drawn), inactive: -0.174%; as for `COc1cccc(C(=O)N(c2cc(C)cc(C)c2)C2CCN(C(=O)OC(C)(C)C)CC2)c1`, inactive: 2.26%.
Take `COc1cc(OC)cc(C(=O)NCC2(N3CCOCC3)CCCCC2)c1`: the activity score (negative = inhibition) is inactive: 0.524%.
Turning to `CCCOc1ccc(C)cc1CN(CCCl)CCCl`, the activity score (negative = inhibition) was inactive: 2.3%.
As for `CN1CCC(Nc2ccc(Cl)cc2)CC1`, the figure is inactive: -0.783%; as for `COc1cc(OC)cc(C(=O)NCC2(N3CCCCC3)CCCCC2)c1`, inactive: 2.11%.
For `Fc1ccccc1NC1CCN(Cc2ccccc2)CC1` the value was inactive: 1.25%; for `Cc1ccc(C(=O)NCC2(N3CCCCC3)CCCCC2)o1`, inactive: 4.16%; for `CCN1CCC(Nc2cccc(F)c2)CC1`, inactive: -1.57%.
Consider `CN(C)c1ccc(C(=O)NCC2(N3CCCCC3)CCCCC2)cc1`, for which the activity score (negative = inhibition) is inactive: -2.07%.
Turning to `CC(C)(C)OC(=O)N1CCC(N(C(=O)c2ccccc2)c2ccc(Cl)cc2)CC1`, the activity score (negative = inhibition) was inactive: 0.693%.
`N#Cc1ccc(C(=O)NCC2(N3CCCCC3)CCCCC2)cc1`: the activity score (negative = inhibition) was inactive: 1.61%.
As for `CCCN1CCC(Nc2cc(OC)cc(OC)c2)CC1`, the figure is inactive: 1.36%; as for `c1ccc(CN2CCC(Nc3ccccc3)CC2)cc1`, inactive: 1.91%.
As to `CN(C)C1(CNC(=O)c2cccc(C#N)c2)CCCCC1`, the activity score (negative = inhibition) was inactive: 2.2%.
For the compound `COc1ccc(C(=O)NCC2(N3CCOCC3)CCCCC2)cc1OC`, the activity score (negative = inhibition) was inactive: 1.35%.
In the case of `N/C(=N\O)c1c(N)no[n+]1[O-]`, the activity score (negative = inhibition) was inactive: -1.57%.
For the compound `CCOC(=O)N1CCC(Nc2ccc(C)cc2)CC1`, the activity score (negative = inhibition) was inactive: 1.76%.
In the case of `O=C(OC1CN2CCC1CC2)C1c2ccccc2C=Cc2ccccc21` (stereo not drawn), the activity score (negative = inhibition) is inactive: -0.139%.
In the case of `CCc1cc(C(=O)NCC2(N3CCCCC3)CCCCC2)sc1C`, the activity score (negative = inhibition) was inactive: 3.3%.
Consider `CN(C)c1cccc(C(=O)NCC2(N3CCCCC3)CCCCC2)c1`, for which the activity score (negative = inhibition) was inactive: 2.46%.
With `COc1ccc(CN(CCCl)CCCl)cc1Cl`, the activity score (negative = inhibition) is inactive: 1.93%.
Take `CC(C)c1ccc(NC2CCN(C(=O)OC(C)(C)C)CC2)cc1`: the activity score (negative = inhibition) is inactive: 3.83%.
In the case of `COc1cc(OC)c(C(=O)NCC2(N(C)C)CCCCC2)cc1OC`, the activity score (negative = inhibition) was inactive: -4.28%.
Regarding `CN1CCC(Nc2cccc(F)c2)CC1`, the activity score (negative = inhibition) is inactive: -0.802%.
For the compound `CCCOc1ccc(C(=O)NCC2(N(C)C)CCCCC2)cc1OC`, the activity score (negative = inhibition) was inactive: -0.622%.
Regarding `O=C(NCC1(N2CCCCC2)CCCCC1)c1ccc(OC(F)F)cc1`, the activity score (negative = inhibition) is inactive: -1.23%.
As for `O=C(NCC1(N2CCCCC2)CCCCC1)c1cccc([N+](=O)[O-])c1`, the figure is inactive: -0.87%; as for `N#CC1(Nc2ccccc2)CCN(CCc2ccccc2)CC1`, inactive: -1.81%.
Turning to `CCN1CCC(Nc2ccc(Cl)cc2)CC1`, the activity score (negative = inhibition) was inactive: -1.78%.
On to `O=C(NCC1(N2CCCCC2)CCCCC1)c1cccc(C(F)(F)F)c1`, for which the activity score (negative = inhibition) was inactive: 0.341%.
Consider `COc1ccc(NC2CCN(C(=O)OC(C)(C)C)CC2)cc1`, for which the activity score (negative = inhibition) is inactive: 0.317%.
As for `CN1CCN(CCOC(=O)C(O)(c2ccccc2)c2ccccc2)CC1`, the activity score (negative = inhibition) is inactive: 7.35%.
Turning to `O=C(NCC1(N2CCOCC2)CCCCC1)c1cc(=O)[nH]c2ccccc12`, the activity score (negative = inhibition) was inactive: -0.779%.
Take `COc1cc(C(=O)NCC2(N3CCCCC3)CCCCC2)ccc1OC(F)F`: the activity score (negative = inhibition) was inactive: 3.95%.
As for `CCOc1ccc(C)cc1CN(CCCl)CCCl`, the figure is inactive: -0.19%; as for `CCOC(=O)N1CCC(Nc2ccc(F)cc2)CC1`, inactive: -4.84%; as for `COc1ccc(NC2CCN(CCc3ccccc3)CC2)c(OC)c1`, inactive: -3.5%.
Regarding `O=C(NCC1(N2CCCCC2)CCCCC1)c1ccc(F)cc1`, the activity score (negative = inhibition) was inactive: -5.31%.
Take `Cc1ccc(OCC(C)C)c(CN(CCCl)CCCl)c1`: the activity score (negative = inhibition) is inactive: -1.22%.
For `COc1cc(C(=O)NCC2(N(C)C)CCCCC2)ccc1OC(F)F` the value was inactive: -1.21%.
Consider `CCOC(=O)N1CCC(Nc2cccc(C)c2)CC1`, for which the activity score (negative = inhibition) is inactive: -0.625%.
`O=C(NCC1(N2CCCCC2)CCCCC1)c1cccs1`: the activity score (negative = inhibition) is inactive: 1.94%.
For `O=C(NCC1(N2CCCCC2)CCCCC1)c1ccc(=O)[nH]c1`, the activity score (negative = inhibition) is inactive: 1.7%.
For `CC(C)(C)OC(=O)N1CCC(N(C(=O)c2ccccc2)c2ccc(F)cc2)CC1` the value was inactive: 4.48%.
For `COc1ccc(C(=O)NCC2(N3CCCCC3)CCCCC2)c(OC)c1OC` the value was inactive: -0.61%; for `COc1ccc(C(=O)NCC2(N3CCCCC3)CCCCC2)cc1`, inactive: -0.58%; for `O=C(NCC1(N2CCOCC2)CCCCC1)c1cc2ccccc2o1`, inactive: 2.26%.
On to `Cc1cc(C)cc(N(C(=O)c2ccccc2)C2CCN(C(=O)OC(C)(C)C)CC2)c1`, for which the activity score (negative = inhibition) is inactive: -4%.
Regarding `O=C(NCC1(N2CCCCC2)CCCCC1)c1ccc(Cl)nc1`, the activity score (negative = inhibition) is inactive: 2.02%.
`CCOC(=O)N1CCC(Nc2ccc(OC)cc2)CC1`: the activity score (negative = inhibition) is inactive: -0.582%.
As to `O=C(OC1CN2CCC1CC2)C1c2ccccc2Oc2ccccc21` (stereo not drawn), the activity score (negative = inhibition) was inactive: 2.71%.
Consider `N#CC1(Nc2ccccc2)CCN(Cc2ccccc2)CC1`, for which the activity score (negative = inhibition) was inactive: 1.03%.

The record behind these values is PubChem BioAssay AID2097 (Broad Institute, 2009).
